Amino acid sequences for entries named in this document (tags omitted).
UniProt P62937, whole entry: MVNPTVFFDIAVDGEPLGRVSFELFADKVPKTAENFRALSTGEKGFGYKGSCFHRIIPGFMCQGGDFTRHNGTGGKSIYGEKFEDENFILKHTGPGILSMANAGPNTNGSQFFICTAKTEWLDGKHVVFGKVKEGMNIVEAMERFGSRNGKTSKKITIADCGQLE

In patent US9512175B2, “Macrocyclic inhibitors of flaviviridae viruses” (Gilead Sciences, Inc., priority 2012, dated 2016):

Target: cyclophilin A (Homo sapiens, UniProt P62937)
Test: Cyclophilin A TR-FRET competitive binding assay
Details: read-out: TR-FRET; IC50 ranges; competition with CsA-Cy5 for His-tagged CypA, two-hour incubation

Compound: CC(C)[C@@H]1NC(=O)C(C)(C#N)/C=C/c2ccc3ccc(nc3c2)[C@@H](C)OC(=O)[C@@H]2CCCN(N2)C(=O)[C@H](C)NC1=O (single isomer, unassigned)
- IC50: < 100 nM
